Yeast mating assay 2: variants of the scFv Ab-91

The target is the same throughout: PDVDLGDISGINAS, from the HR2 region of SARS-CoV-2 spike.

Parent: Ab-91, a human scFv built as VL, three GGGGS repeats, VH. Only the CDRs of the heavy chain vary.
VL: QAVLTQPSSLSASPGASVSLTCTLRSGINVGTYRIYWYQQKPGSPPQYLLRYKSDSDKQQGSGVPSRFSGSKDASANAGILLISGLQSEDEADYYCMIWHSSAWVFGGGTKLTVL
VH: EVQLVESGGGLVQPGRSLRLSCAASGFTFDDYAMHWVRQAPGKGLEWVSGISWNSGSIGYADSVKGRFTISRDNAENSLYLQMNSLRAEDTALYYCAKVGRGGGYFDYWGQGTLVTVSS

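In library AAYL51, one, two or three CDR residues were substituted; doubles and triples were drawn at random. Affinity was read by AlphaSeq, a pooled yeast mating assay with surface-displayed partners. Binding brings cells together so that they mate, and sequencing counts the barcode pairs among the diploids. The ratio of observed to expected reads was calibrated, replicate by replicate, on BCL2-family standards whose Kd was known from biolayer interferometry. The assay was run in three technical replicates.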

The parent's heavy chain CDRs are GFTFDDYAMH, GISWNSGSIGYADSVK, VGRGGGYFDY; each variant's own CDRs replace them letter for letter. Every variant below is changed at V99 of the VH (sequential numbering). Numbers give log10(Kd / nM), so 0 is 1 nM and 3 is 1 µM. Smaller is tighter. Replicates are averaged; those with no signal do not enter the mean. A pair that was not seen in any replicate is written "nd"; this usually means weak binding, but a binder can also be missed. As a blank, each scFv also met three strains without target: over library AAYL51, 21% of these pairings were detected, typically at 4.54 and seldom below 3.26. The control count says in how many pairings with the empty strains this scFv gave a signal.

* GFTFDDYAMV, GISWNSASIGYADSVK, IGRGGGYFDY = 5.29 (3 of 3 replicates; controls 4 of 9)
* GFTFDDYAMH, GISWNSPSIGYADSVK, LGRGGGTFDY = 5.14 (1 of 3 replicates; controls 1 of 9)
* GFAFDDYAMH, GISWNSGSIGYADTVK, FGRGGGYFDY = 6.12 (1 of 3 replicates; controls 4 of 9)
* GFTFDDYGMH, GISWNSGSIGYADSVK, DGRGGGIFDY = 5.06 (2 of 3 replicates; controls 4 of 9)
* GFTGDDYAMH, GISWNSGSIGYADHVK, HGRGGGYFDY = 4.45 (1 of 3 replicates; controls 1 of 9)
* IFTFDDYAMH, GISWNSGPIGYADSVK, WGRGGGYFDY = nd (0 of 3 replicates; controls 0 of 9)
* GFTFDDYAMH, GISWNSGSPGYADSKK, KGRGGGYFDY = 5.87 (1 of 3 replicates; controls 3 of 9)
* GFTFDDYAMH, GISWNSGSIGYADSVK, ATRGGGYHDY = 5.03 (3 of 3 replicates; controls 5 of 9)
* GFTFNDYAMH, GISQNSGSIGYADSVK, QGRGGGYFDY = 5.04 (2 of 3 replicates; controls 6 of 9)
* GRTFDDYAMH, GISWKSGSIGYADSVK, NGRGGGYFDY = nd (0 of 3 replicates; controls 5 of 9)
* PFTFDDYAMH, GISWNSGSILYADSVK, RGRGGGYFDY = nd (0 of 3 replicates; controls 0 of 9)
* GFTFDDYAMH, GISWNSGSIGYADSVK, EDRGGGYFIY = 3.09 (3 of 3 replicates; controls 2 of 9)
* GFTFDDYAMH, GISWNSGSIGYADSVK, LGRGGGYFHY = 4.81 (3 of 3 replicates; controls 7 of 9)
* GFTFDDYAMR, EISWNSGSIGYADSVK, CGRGGGYFDY = 3.91 (1 of 3 replicates; controls 3 of 9)
* GFTFDDYAMH, GISHNVGSIGYADSVK, TGRGGGYFDY = 4.13 (1 of 3 replicates; controls 0 of 9)
* GFTFDDYAMH, GIDWNYGSIGYADSVK, NGRGGGYFDY = nd (0 of 3 replicates; controls 0 of 9)
* GFTFDDYAMH, GISWNSGSIGYADSVK, HWQGGGYFDY = 5.64 (3 of 3 replicates; controls 4 of 9)
* GFTFRDYAMH, GISWNSGSIGYADSVK, TGRGGGYFAY = nd (0 of 3 replicates; controls 0 of 9)
* GFTFDDYAMH, GISWNSGSIGYADSVK, HYRGGGYFLY = 4.88 (3 of 3 replicates; controls 6 of 9)
* GFTFDDYRMH, GISWNSGSWGYADSVK, CGRGGGYFDY = 1.37 (3 of 3 replicates; controls 1 of 9)
* GFTFDDGAMH, GIKWNSGSIGYADSVK, YGRGGGYFDY = 5.73 (1 of 3 replicates; controls 2 of 9)
* GFTFDDYAMH, GISWNSGQIEYADSVK, CGRGGGYFDY = 6.17 (1 of 3 replicates; controls 5 of 9)
* GFTFDDYAMH, GISWYSGSIGYADSVK, MGRGGGNFDY = nd (0 of 3 replicates; controls 1 of 9)
* GFTFDDYAMH, GISWNSTSIGYWDSVK, WGRGGGYFDY = nd (0 of 3 replicates; controls 1 of 9)
* GFTFDDNAMH, GISWNSGSIGYADSVK, AGRGGGYFGY = 3.84 (1 of 3 replicates; controls 1 of 9)
* GFTFDDYAMH, GISWNSGSIRYADSVK, YGRGGGYFQY = 4.57 (2 of 3 replicates; controls 4 of 9)
* RFTFDDYAMH, GISWNLGSIGYADSVK, TGRGGGYFDY = 5.82 (1 of 3 replicates; controls 3 of 9)
* GWTFDDYAMH, GISWNSGSIGYADSVK, SGRGGGYLDY = 4.38 (1 of 3 replicates; controls 1 of 9)
* GFTFDDYAMH, GISWNSGSIGYADSVK, HGRGGGYFDY = nd (0 of 3 replicates; controls 0 of 9)
* GFTFDDYAMH, GISWNSGSIGYADSVK, WGRGGGCMDY = nd (0 of 3 replicates; controls 1 of 9)
* GFTFDDYAMH, GISGNSGSILYADSVK, AGRGGGYFDY = 4.67 (2 of 3 replicates; controls 9 of 9)
* GFTFDDYAMH, GISWNSGSIGYADSVK, KGRGGGYFDY = 4.72 (1 of 3 replicates; controls 1 of 9)
* GFTFDDYAME, GISWNSGSIDYADSVK, NGRGGGYFDY = 3.19 (1 of 3 replicates; controls 1 of 9)
* GFRFDDYAMH, GISDNSGSIGYADSVK, YGRGGGYFDY = 4.53 (2 of 3 replicates; controls 4 of 9)
* GFVFDDYAMT, GISWNSGSIGYADSVK, AGRGGGYFDY = 5.37 (1 of 3 replicates; controls 4 of 9)
* WFTFDDYAMH, GISWNSGSNGYADSVK, IGRGGGYFDY = nd (0 of 3 replicates; controls 2 of 9)
* GFTRDRYAMH, GISWNSGSIGYADSVK, WGRGGGYFDY = nd (0 of 3 replicates; controls 0 of 9)
* GFTFDDYAMH, GISWNSGSIGYADSVK, QGREGGYFDY = 3.65 (1 of 3 replicates; controls 1 of 9)
* GFTFDDYAMH, GIKWNSGSILYADSVK, TGRGGGYFDY = nd (0 of 3 replicates; controls 0 of 9)
* GFTCDDYAMH, GISWNSGSIGYADSVK, LGRGGIYFDY = 3.84 (1 of 3 replicates; controls 5 of 9)
* GFTFDDYAMH, GISWNSGSIGYADSVK, TGRGGGYFDY = nd (0 of 3 replicates; controls 0 of 9)
* GFTFDDYAPH, GISWNSGSIGYADSVK, LGRGHGYFDY = 5.88 (1 of 3 replicates; controls 1 of 9)
* DFTFDDYAMH, GISWNSGSIGYADSVK, AARGGGYFDY = 4.46 (1 of 3 replicates; controls 5 of 9)
* GFYWDDYAMH, GISWNSGSIGYADSVK, NGRGGGYFDY = nd (0 of 3 replicates; controls 1 of 9)

6 of these entries, quoted again:

- GFTFDDYAPH, GISWNSGSIGYADSVK, LGRGHGYFDY -> 5.88 (1 of 3 replicates; controls 1 of 9)
- GFTFDDYGMH, GISWNSGSIGYADSVK, DGRGGGIFDY -> 5.06 (2 of 3 replicates; controls 4 of 9)
- GFTFDDYAMH, GISWNSGSPGYADSKK, KGRGGGYFDY -> 5.87 (1 of 3 replicates; controls 3 of 9)
- GFTFDDYAMH, GISWNSGSIRYADSVK, YGRGGGYFQY -> 4.57 (2 of 3 replicates; controls 4 of 9)
- GFTFDDYAMH, GIDWNYGSIGYADSVK, NGRGGGYFDY -> nd (0 of 3 replicates; controls 0 of 9)
- GFTFDDNAMH, GISWNSGSIGYADSVK, AGRGGGYFGY -> 3.84 (1 of 3 replicates; controls 1 of 9)

Reference: Engelhart et al. 2022, doi:10.1038/s41597-022-01779-4. File: FLAb, binding data.